Laboratory results: PMC7382816 (BMC Pharmacology & Toxicology, 2020)

Assay: Single-dose pharmacokinetics in healthy volunteers under fasting and fed (high-fat breakfast) conditions, plasma concentrations by HPLC-MS, non-compartmental analysis
Assay type: in vivo, human
Conditions: mean ± SD; for half-life: human, plasma
Description: The bioequivalence clinical trials were phase I, randomized, open-label, crossover, single-centre, with two periods separated by a 7-day washout stage. Subjects were randomised to one of the two treatment sequences, RT or TR where R was the reference formulation and T was the test formulation. Each of the clinical trial was crossover for evaluation of a test formulation compared to a reference formulation either under fed or fasting conditions. […] The treatments were allocated in a balanced manner on every inclusion day (blocks of 4 subjects). Our study adheres to CONSORT guidelines. […] Sample processing, genotyping for CYP2C19 and drug quantification were performed according to Román et al. […] Pharmacokinetic parameters were estimated from the plasma concentration–time data by non-compartmental analysis (WinNonlin Professional, version 2.0., Pharsight Corporation, USA) as reported by Román et al. […] WinNonLin Professional software version 2.0 was used for the statistical analysis. Pharmacokinetic parameters were log-transformed, and AUC and Cmax were adjusted for dose and weight. The values of pharmacokinetic parameters were expressed as mean ± standard deviation.

## COc1ccc2[nH]c([S+]([O-])Cc3ncc(C)c(OC)c3C)nc2c1 (stereo not drawn) [Omeprazole, omeprazole]
Both sexes, po, Fast, all subjects, single oral dose
  half-life: 1.1 ± 0.6 h
female, oral, only CYP2C19*1/*1 subjects, Fed, women
  half-life: 1.1 ± 0.4 h
Only CYP2C19*1/*1 subjects, Fast, women
  Tmax: 1.5 ± 0.3 h
